Source: patent US20240083996A1, “COMPOSITION FOR PROPHYLAXIS OR TREATMENT OF IL-8 RELATED DISEASES” (Chugai Seiyaku Kabushiki Kaisha, priority 2016, published 2024)

Amino acid sequences for entries named in this document (tags omitted). Residues count along the entry.
UniProt P10145, 23-99 limits assumed: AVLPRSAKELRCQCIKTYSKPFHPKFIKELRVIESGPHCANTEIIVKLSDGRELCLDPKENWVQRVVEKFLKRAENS

Tests used:
[1] = tested on: PathHunter CHO-K1 CXCR2 β-Arrestin cell line (human IL-8-mediated signals); test: Stability of human IL-8-neutralizing activity in mouse plasma (human IL-8 inhibition assay using human CXCR2-expressing cells); assay type: cell-based; conditions: antibody 0.2 mg/mL in mouse plasma, 40° C., one and two weeks; human IL-8 2 nM (FIGS. 18-1 to 18-3)
Description: Mouse plasma was collected from the blood of C57BL/6J (Charles River) by a method known to those skilled in the art. 200 μL of 200 mM PBS (Sigma, P4417) was added to 800 μL of mouse plasma to give 1 mL. Furthermore, sodium azide was added at a final concentration of 0.1% as an antiseptic. […] At this point, a portion of the sample was collected as the initial sample. The remaining sample was stored at 40° C. One week and two weeks after storage, a portion of each sample was collected, and they were used as the one-week-stored sample and the two-week-stored sample. All samples were frozen at −80° C. and stored until each analysis was performed.
Next, anti-IL-8 antibodies contained in mouse plasma were evaluated for their human IL-8-neutralizing activity as follows: CXCR1 and CXCR2 are known receptors for human IL-8. The PathHunter(registered trademark) CHO-K1 CXCR2 β-Arrestin cell line (DiscoveRx Co., Cat. #93-0202C2) expresses human CXCR2, and is a cell line artificially produced so as to emit chemiluminescence when human IL-8-mediated signals are transmitted. […]
Then, the above-mentioned cell line was used to examine whether the neutralizing activity of an antibody stored in mouse plasma was maintained. […] Next, a detection reagent was added according to the protocol of the product, and the relative chemiluminescence level was detected using a chemiluminescence detector. […]

[2] = molecular target: human IL-8 (Homo sapiens, UniProt P10145); test: Mouse PK assay: human IL-8 elimination after simultaneous administration of human IL-8 and anti-human IL-8 antibody; assay type: in vivo, mice (C57BL/6J); conditions: mice
Description: After simultaneous administration of human IL-8 and anti-human IL-8 antibodies to mice (C57BL/6J, Charles river), pharmacokinetics of human IL-8 were evaluated. A mixed solution of human IL-8 and an anti-human IL-8 antibody (10 μg/mL and 200 μg/mL, respectively) was administered in a single dose at 10 mL/kg to the tail vein. […] Blood was collected five minutes, two hours, four hours, seven hours, one day, two days, three days, seven days, 14 days, 21 days, and 28 days after the administration. The collected blood was immediately centrifuged at 15,000 rpm and 4° C. for 15 minutes to obtain plasma. The separated plasma was stored in a freezer set at −20° C. or below until measurements were taken.
The human IL-8 concentration in mouse plasma was determined by an electrochemiluminescence method. First, an anti-human IL-8 antibody (prepared in-house) having a mouse IgG constant region was dispensed into a MULTI-ARRAY 96-well Plate (Meso Scale Discovery), and was allowed to stand at room temperature for one hour. Then, a PBS-Tween solution containing 5% BSA (w/v) was used for blocking at room temperature for two hours to prepare an anti-human IL-8 antibody-immobilized plate. […] The human IL-8 concentration was calculated based on the response in the calibration curve using the analytical software, SOFT Max PRO (Molecular Devices). […]

B1: H89/L118: pH-dependent IL-8-binding antibody, H89-IgG1 heavy chain, L118-kOMT (SEQ ID NO:44) light chain (antibody)
heavy: QVQLVESGGGLVQPGGSLRLSCAASGFTFSDYYLSWVRQAPGKGLEWVGLIRNKANGYTREYSASVKGRFTISRDDSKNSLYLQMSSLKTEDTAVYYCARENHRYDVELAYWGQGTLVTVSSASTKGPSVFPLAPSSKSTSGGTAALGCLVKDYFPEPVTVSWNSGALTSGVHTFPAVLQSSGLYSLSSVVTVPSSSLGTQTYICNVNHKPSNTKVDKKV[human IgG1 Fc skipped]
light: DIQMTQSPSSLSASVGDRVTITCRASEIIYSYLAWYQQKPGKAPKLLIYHAKTHADGVPSRFSGSGSGTDFTFTISSLQPEDIATYYCKHHFGFPRTFGQGTKVEIKRTVAAPSVFIFPPSDEQLKSGTASVVCLLNNFYPREAKVQWKVDNALQSGNSQESVTEQDSKDSTYSLSSTLTLSKADYEKHKVYACEVTHQGLSSPVTKSFNRGEC
human IL-8-neutralizing activity before and after storage in mouse plasma [1]: differences in the human IL-8-neutralizing activity before and after storage in mouse plasma were not observed | slowing of the rate of human IL-8 elimination, 8 mg/kg group compared to 2 mg/kg group [2]: approximately 2 fold | rate of human IL-8 elimination (CL) as compared to H998/L63 ([2]; antibody 2 mg/kg with human IL-8): about 19 fold

B2: Hr9: humanized anti-human IL-8 antibody, Hr9-IgG1 (SEQ ID NO:41) heavy chain, hWS4L-kOMT light chain (antibody)
heavy: QVQLVESGGGLVQPGGSLRLSCAASGFTFSDYYLSWVRQAPGKGLEWVGLIRNKANGYTREYSASVKGRFTISRDDSKNSLYLQMSSLKTEDTAVYYCARENYRYDVELAYWGQGTLVTVSSASTKGPSVFPLAPSSKSTSGGTAALGCLVKDYFPEPVTVSWNSGALTSGVHTFPAVLQSSGLYSLSSVVTVPSSSLGTQTYICNVNHKPSNTKVDKKV[human IgG1 Fc skipped]
light: DIQMTQSPSSLSASVGDRVTITCRASEIIYSYLAWYQQKPGKAPKLLIYNAKTLADGVPSRFSGSGSGTDFTFTISSLQPEDIATYYCQHHFGFPRTFGQGTKVEIKRTVAAPSVFIFPPSDEQLKSGTASVVCLLNNFYPREAKVQWKVDNALQSGNSQESVTEQDSKDSTYSLSSTLTLSKADYEKHKVYACEVTHQGLSSPVTKSFNRGEC
human IL-8-neutralizing activity before and after storage in mouse plasma [1]: differences in the human IL-8-neutralizing activity before and after storage in mouse plasma were not observed
